IC50 data for 1 molecule are collected here from ChEMBL document CHEMBL1122866, “3-Phenyl-1-indanamines. Potential antidepressant activity and potent inhibition of dopamine, norepinephrine, and serotonin uptake” (J Med Chem, 1985).

The chains behind the UniProt entries cited, without tags or fusion partners.
UniProt P23977, whole entry: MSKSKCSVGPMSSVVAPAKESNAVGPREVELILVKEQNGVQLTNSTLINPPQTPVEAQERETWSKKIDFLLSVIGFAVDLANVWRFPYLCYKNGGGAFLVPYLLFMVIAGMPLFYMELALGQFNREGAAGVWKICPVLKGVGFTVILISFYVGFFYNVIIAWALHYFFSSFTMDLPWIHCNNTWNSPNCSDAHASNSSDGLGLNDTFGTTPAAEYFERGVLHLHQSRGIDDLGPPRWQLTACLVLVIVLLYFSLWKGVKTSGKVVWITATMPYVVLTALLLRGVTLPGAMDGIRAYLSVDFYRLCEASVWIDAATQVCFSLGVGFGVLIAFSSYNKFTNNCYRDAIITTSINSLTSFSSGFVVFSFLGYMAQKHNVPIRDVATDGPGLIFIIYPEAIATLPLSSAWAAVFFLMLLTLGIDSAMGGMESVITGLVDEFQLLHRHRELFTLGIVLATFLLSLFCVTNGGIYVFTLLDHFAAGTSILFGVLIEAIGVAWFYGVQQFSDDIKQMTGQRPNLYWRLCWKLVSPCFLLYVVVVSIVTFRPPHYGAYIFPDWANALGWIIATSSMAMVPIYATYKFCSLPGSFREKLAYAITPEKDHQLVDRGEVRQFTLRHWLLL

The target of the assay is Sodium-dependent dopamine transporter (Rattus norvegicus, UniProt P23977). Kind of assay: Inhibition of dopamine uptake in rat synaptosomal fraction. In kind it is functional.

pIC50: −log10 of the molar value.

One may read the pIC50 as the IC50 on a negative log10 scale, so that one unit is a factor of ten. Higher therefore signals a low IC50.

`CN(C)CCCC1(c2ccc(F)cc2)OCc2cc(C#N)ccc21` (stereo unspecified) [CITALOPRAM] gave a pIC50 of 4.39.
